Data on ten substances can be found in article PMC9798004 (Frontiers in Psychiatry, 2022).

Chains of the proteins cited; added tags and fusions are not shown. Lines headed by an entry give the natural chain unless they say otherwise; changes in a name come on top. Residues count along the entry.
UniProt P30411, whole entry: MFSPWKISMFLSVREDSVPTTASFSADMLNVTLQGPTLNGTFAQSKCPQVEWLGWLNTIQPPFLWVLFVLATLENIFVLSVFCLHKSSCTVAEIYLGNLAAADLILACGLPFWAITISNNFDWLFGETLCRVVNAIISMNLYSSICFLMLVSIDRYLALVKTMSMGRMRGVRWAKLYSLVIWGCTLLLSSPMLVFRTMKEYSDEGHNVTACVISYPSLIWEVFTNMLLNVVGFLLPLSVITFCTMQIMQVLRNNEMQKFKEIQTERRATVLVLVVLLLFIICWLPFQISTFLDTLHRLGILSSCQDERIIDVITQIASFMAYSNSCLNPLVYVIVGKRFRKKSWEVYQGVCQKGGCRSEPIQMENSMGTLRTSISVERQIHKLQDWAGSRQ
UniProt P28336: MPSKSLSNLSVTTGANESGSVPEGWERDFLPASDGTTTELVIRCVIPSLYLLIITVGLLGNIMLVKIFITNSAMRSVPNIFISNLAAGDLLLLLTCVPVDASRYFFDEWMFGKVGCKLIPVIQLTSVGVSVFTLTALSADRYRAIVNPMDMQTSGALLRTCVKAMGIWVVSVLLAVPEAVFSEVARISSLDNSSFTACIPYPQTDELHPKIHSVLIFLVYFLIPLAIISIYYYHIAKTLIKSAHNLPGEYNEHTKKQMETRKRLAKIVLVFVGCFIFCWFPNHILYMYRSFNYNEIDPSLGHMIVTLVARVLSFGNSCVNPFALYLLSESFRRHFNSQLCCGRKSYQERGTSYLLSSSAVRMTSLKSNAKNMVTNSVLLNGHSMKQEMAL
UniProt P30872: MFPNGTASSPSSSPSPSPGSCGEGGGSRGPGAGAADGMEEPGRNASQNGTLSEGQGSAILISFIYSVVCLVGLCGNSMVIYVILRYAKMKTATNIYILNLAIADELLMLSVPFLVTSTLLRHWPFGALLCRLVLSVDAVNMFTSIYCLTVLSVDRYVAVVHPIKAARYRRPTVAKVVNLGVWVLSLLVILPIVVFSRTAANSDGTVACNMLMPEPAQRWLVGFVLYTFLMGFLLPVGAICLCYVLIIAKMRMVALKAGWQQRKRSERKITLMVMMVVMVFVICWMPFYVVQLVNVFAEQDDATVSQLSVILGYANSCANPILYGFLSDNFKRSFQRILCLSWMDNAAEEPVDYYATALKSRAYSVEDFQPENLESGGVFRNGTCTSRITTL
UniProt P30874: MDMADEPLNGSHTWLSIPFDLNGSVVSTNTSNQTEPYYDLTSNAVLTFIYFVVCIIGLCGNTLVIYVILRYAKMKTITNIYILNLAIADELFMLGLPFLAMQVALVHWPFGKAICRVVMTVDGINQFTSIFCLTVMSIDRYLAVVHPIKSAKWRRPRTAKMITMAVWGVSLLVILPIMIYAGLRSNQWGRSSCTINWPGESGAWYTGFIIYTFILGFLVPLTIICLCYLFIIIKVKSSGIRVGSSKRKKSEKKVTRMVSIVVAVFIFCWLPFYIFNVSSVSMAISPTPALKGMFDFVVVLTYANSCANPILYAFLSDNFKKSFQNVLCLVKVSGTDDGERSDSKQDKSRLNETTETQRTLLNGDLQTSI
UniProt P35346: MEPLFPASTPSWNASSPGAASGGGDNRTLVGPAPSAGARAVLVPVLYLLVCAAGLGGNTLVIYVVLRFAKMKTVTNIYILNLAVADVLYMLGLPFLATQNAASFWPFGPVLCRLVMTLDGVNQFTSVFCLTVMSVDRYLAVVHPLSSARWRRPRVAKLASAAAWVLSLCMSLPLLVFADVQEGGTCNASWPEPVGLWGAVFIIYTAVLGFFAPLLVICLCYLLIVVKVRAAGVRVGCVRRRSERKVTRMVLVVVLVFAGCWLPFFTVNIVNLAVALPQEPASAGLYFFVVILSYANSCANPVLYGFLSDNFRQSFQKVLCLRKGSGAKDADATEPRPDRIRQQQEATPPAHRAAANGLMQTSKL
UniProt P25101, 21-427: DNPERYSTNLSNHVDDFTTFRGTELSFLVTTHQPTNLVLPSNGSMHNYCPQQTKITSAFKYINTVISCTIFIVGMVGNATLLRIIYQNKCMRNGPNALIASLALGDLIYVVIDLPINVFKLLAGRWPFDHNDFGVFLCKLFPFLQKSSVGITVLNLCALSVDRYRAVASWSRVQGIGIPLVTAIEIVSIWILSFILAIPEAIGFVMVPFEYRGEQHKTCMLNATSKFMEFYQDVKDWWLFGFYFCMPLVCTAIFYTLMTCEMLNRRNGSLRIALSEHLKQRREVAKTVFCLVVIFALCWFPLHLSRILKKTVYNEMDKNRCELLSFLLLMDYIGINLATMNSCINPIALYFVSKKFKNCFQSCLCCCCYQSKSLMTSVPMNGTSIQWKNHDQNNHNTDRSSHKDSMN
UniProt Q969F8, whole entry: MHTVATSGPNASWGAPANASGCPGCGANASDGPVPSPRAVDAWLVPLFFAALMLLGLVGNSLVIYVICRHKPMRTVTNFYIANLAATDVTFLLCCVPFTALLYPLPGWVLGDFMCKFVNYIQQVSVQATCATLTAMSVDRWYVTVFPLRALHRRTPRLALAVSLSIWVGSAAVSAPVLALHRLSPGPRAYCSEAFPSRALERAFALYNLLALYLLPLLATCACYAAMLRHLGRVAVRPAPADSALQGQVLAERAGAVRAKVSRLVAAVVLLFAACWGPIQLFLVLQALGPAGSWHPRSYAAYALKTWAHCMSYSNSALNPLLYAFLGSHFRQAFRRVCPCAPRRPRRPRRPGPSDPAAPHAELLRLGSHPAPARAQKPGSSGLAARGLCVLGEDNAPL
UniProt P41968: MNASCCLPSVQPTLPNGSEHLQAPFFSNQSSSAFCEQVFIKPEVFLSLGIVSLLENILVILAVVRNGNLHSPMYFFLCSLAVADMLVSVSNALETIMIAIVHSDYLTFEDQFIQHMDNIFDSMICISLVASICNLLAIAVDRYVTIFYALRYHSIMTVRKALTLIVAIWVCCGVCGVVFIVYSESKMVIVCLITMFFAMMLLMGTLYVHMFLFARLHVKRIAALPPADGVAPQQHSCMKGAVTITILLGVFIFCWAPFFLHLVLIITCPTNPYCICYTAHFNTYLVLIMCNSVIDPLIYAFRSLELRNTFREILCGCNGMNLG
UniProt P33032: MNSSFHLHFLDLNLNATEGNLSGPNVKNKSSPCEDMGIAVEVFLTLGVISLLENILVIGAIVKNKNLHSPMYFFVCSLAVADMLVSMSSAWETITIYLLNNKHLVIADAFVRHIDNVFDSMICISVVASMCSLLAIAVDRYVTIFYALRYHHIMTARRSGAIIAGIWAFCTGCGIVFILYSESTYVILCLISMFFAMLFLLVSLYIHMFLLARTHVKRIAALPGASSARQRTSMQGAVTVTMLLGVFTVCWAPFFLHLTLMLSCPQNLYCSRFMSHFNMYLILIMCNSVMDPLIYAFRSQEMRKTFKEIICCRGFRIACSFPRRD
UniProt Q01726: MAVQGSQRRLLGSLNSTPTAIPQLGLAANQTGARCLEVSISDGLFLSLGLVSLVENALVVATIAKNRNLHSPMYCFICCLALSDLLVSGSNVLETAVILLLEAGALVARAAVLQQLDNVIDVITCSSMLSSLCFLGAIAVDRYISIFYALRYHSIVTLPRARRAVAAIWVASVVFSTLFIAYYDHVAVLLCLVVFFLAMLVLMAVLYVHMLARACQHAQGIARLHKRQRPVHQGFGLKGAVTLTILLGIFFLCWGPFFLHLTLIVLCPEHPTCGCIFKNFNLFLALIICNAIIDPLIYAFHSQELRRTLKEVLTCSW

What all share (assay): PathHunter β-arrestin assay
For one assay, the target named is BDKRB2 (Homo sapiens, UniProt P30411). As to conditions: screen, control agonist; CHO, RT, 2HR.
The target of a further assay is NMBR (Homo sapiens, UniProt P28336). As to conditions: screen, control agonist; CHO, RT, 2HR.
For the next assay, the target named is T1, BRS3 (Homo sapiens, UniProt P32247).
T1 sequence (P32247 1-399): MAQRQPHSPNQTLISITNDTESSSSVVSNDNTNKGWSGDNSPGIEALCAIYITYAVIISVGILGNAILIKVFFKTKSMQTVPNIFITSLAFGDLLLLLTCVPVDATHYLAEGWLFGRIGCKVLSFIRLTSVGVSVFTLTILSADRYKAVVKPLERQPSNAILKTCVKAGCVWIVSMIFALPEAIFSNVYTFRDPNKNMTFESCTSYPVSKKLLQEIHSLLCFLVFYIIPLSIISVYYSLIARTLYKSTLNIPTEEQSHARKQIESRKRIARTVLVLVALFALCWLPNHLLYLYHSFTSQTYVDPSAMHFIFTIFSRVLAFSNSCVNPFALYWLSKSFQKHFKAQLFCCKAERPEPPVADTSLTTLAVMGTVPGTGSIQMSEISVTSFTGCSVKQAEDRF
The conditions noted are these: screen, control agonist; CHO, 37C, 2HR.

The next assay concerns the target SSTR1 (Homo sapiens, UniProt P30872). The conditions noted are these: screen, control agonist; U20S, 37C, 2HR.
For a further assay, the target named is SSTR2 (Homo sapiens, UniProt P30874). As to conditions: screen, control agonist; CHO, 37C, 2HR.
The target in a further assay is SSTR5 (Homo sapiens, UniProt P35346). As to conditions: screen, control agonist; CHO, 37C, 2HR.
A further assay deals with T2, OXTR (Homo sapiens, UniProt P30559).
T2 sequence (P30559 1-389): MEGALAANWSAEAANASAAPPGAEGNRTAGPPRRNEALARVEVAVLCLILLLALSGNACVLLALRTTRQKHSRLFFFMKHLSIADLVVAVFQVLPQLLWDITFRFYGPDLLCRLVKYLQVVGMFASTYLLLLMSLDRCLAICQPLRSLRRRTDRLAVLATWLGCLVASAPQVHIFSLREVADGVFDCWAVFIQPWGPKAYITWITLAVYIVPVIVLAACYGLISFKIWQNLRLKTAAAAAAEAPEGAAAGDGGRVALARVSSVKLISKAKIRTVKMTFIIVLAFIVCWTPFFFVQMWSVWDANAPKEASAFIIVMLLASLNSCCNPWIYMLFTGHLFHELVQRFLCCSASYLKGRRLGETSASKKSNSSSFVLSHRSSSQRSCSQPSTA
As to conditions: control agonist.

A further assay has as its target EDNRA (Homo sapiens, UniProt P25101). The conditions noted are these: screen, control agonist; CHO, RT, 2HR.
A further assay has as its target T3, CRHR1 (Homo sapiens, UniProt P34998).
T3 construct: purchased Eurofins DiscoverX (PathHunter gpcrMAX)
T3 sequence (P34998 24-415): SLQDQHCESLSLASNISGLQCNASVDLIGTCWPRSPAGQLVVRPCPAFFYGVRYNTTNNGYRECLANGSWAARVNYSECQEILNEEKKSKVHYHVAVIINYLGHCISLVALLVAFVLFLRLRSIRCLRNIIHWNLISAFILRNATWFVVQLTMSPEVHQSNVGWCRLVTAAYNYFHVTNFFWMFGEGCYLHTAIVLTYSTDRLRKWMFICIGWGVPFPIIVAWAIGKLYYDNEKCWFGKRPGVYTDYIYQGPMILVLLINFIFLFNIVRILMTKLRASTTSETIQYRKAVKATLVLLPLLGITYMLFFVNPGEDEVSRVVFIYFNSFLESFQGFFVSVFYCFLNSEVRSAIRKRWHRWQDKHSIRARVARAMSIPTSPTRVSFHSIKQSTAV
It counts as cell-based. The conditions noted are these: screen, control agonist; CHO, 37C, 2HR.

The target in a further assay is KISS1R (Homo sapiens, UniProt Q969F8). The conditions noted are these: screen, control agonist; U20S, 37C, 2HR.
A further assay addresses T4, ADCYAP1R1 (Homo sapiens, UniProt P41586).
T4 sequence (P41586 21-468): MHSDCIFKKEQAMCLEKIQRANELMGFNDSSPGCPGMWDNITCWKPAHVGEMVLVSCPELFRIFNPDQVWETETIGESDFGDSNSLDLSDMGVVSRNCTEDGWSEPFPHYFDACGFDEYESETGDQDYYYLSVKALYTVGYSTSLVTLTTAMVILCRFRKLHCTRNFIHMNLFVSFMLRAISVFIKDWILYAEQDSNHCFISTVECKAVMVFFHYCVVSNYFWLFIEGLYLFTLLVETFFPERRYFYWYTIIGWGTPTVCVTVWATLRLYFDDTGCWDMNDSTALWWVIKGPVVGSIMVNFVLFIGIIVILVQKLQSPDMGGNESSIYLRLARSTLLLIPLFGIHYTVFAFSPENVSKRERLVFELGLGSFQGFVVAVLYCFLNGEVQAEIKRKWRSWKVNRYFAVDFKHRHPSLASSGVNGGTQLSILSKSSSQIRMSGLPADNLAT
The conditions noted are these: screen, control agonist; CHO, 37C, 2HR.

In the next assay the target is MC3R (Homo sapiens, UniProt P41968). As to conditions: control agonist.
The target of the next assay is MC5R (Homo sapiens, UniProt P33032). As to conditions: control agonist.
A further assay has as its target MC1R (Homo sapiens, UniProt Q01726). The conditions noted are these: screen, control agonist; U20S, 37C, 2HR.
[1] abbreviates: follow-up concentration-response assays.

With Bradykinin, the EC80 at BDKRB2 worked out at 3.29 nM.
Take Neuromedin B: the EC80 on NMBR was found to be 9.32 nM.
For TAPN-Bombesin, at BRS3, the EC80 was 6.56 nM.
In the case of Somatostatin 28, the EC80 at SSTR1 was determined as 62.2 nM; at SSTR2, 8.38 nM; on SSTR5, 42.2 nM.
Regarding Oxytocin, the EC80 at OXTR (setting [1]) is 7.35 nM; at OXTR (screen, CHO, 37C, 2HR), 7.35 nM.
At EDNRA, Endothelin I registered an EC80 of 17.4 nM.
Sauvagine: the EC80 on CRHR1 worked out at 3.52 nM.
Substance Kisspeptin-10 came in with an EC80 at KISS1R of 38 nM.
Turning to PACAP-27, at ADCYAP1R1, the EC80 was 3.85 nM.
With Melanotan II, the EC80 at MC3R (setting [1]) was 2.98 nM; at MC3R (screen, U20S, 37C, 2HR) it was 8.96 nM; on MC5R (setting [1]), 50 nM; on MC5R (screen, CHO, 37C, 2HR), 17.3 nM; on MC1R it was 0.557 nM.

One may read the EC80 as the concentration at which the effect reaches the 80% level. High values mean weaker potency, low ones greater potency.
